Consider 1 compound from PMC4324447 (Journal of Medicinal Chemistry, 2014).

Chains of the proteins cited; added tags and fusions are not shown.
UniProt P32245, whole entry: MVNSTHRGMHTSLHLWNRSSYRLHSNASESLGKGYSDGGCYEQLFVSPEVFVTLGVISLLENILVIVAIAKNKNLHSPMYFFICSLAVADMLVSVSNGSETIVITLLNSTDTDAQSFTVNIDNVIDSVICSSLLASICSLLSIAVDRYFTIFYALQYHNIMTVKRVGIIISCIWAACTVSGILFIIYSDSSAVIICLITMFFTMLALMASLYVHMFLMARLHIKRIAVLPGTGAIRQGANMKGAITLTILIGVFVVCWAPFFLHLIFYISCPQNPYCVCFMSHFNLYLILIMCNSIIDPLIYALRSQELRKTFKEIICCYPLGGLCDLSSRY
UniProt P32245, whole entry L106P: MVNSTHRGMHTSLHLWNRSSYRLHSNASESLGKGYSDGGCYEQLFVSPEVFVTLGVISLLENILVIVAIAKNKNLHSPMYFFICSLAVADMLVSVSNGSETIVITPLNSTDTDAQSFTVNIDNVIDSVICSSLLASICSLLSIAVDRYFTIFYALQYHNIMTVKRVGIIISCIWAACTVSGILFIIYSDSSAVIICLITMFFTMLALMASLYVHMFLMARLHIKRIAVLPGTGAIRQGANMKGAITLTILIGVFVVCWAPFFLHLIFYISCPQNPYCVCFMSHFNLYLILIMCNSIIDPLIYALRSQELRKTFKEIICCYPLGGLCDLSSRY

SMILES strings stand for the structures.

One assay addresses WT hMC4R (Homo sapiens, UniProt P32245).
A further assay deals with L106P hMC4R (Homo sapiens, UniProt P32245, L106P). Put plainly: cAMP based CRE/β-galactosidase reporter gene functional bioassay, L106P hMC4R. (Reporter assays use an easily measured gene product as a stand-in for the process of interest.)

As usually defined, the EC50 is the concentration at which the effect is half-maximal. In the case of `CC(=O)N[C@@H](Cc1cnc[nH]1)C(=O)N[C@H](Cc1ccccc1)C(=O)N[C@@H](CCCN=C(N)N)C(=O)N[C@@H](Cc1c[nH]c2ccccc12)C(N)=O` [compound 1, Ac-His-DPhe-Arg-Trp-NH2], the EC50 was 2.6 ± 1.6 nM on WT hMC4R and 215 ± 83 nM at L106P hMC4R.
